PubChem BioAssay AID463075 (University of Pittsburgh Molecular Library Screening Center, 2010)
This is a selection; strong and weak results do not stand in their true shares. Activity calls are given as the source filed them.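 How the source made its calls: active means activation, meaning protection from cell death, of at least 50% relative to plate controls; inactive means activation below 50%.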

experiment: rescue of FADD-deficient Jurkat cells from TNF-alpha death – single concentration, primary screen (AID 463075); conditions: Jurkat FADD-/- TNF necroptosis rescue, ATP luminescence, 24 h; at 10 µM; stronger effect = higher value; 0 = TNF only, 100 = no-TNF cells;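 further: necroptosis triggered by 40 ng/mL TNF-alpha added together with compound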

Row | Compound | activation (protection from cell death)
1 | CN1CCC(Nc2cccc(F)c2)CC1 | inactive: -1.7%
2 | CC(C)c1ccc(NC2CCN(C(=O)OC(C)(C)C)CC2)cc1 | inactive: 0.557%
3 | CN(C)c1cccc(C(=O)NCC2(N3CCCCC3)CCCCC2)c1 | inactive: 1.3%
4 | COc1ccc(CN(CCCl)CCCl)cc1Cl | inactive: -6.58%
5 | O=C(NCC1(N2CCOCC2)CCCCC1)c1cc(=O)[nH]c2ccccc12 | inactive: -0.629%
6 | COc1ccc(NC2CCN(C(=O)OC(C)(C)C)CC2)cc1 | inactive: 0.243%
7 | CN1CCN(CCOC(=O)C(O)(c2ccccc2)c2ccccc2)CC1 | inactive: 1.68%
8 | N#CC1(Nc2ccccc2)CCN(CCc2ccccc2)CC1 | inactive: 1.16%
9 | O=C(NCC1(N2CCCCC2)CCCCC1)c1cccc([N+](=O)[O-])c1 | inactive: 0.0944%
10 | Cc1ccc(OCC(C)C)c(CN(CCCl)CCCl)c1 | inactive: -29.2%
11 | CCOc1ccc(C)cc1CN(CCCl)CCCl | inactive: -25.8%
12 | COc1ccc(NC2CCN(CCc3ccccc3)CC2)c(OC)c1 | inactive: 1.86%
13 | O=C(NCC1(N2CCOCC2)CCCCC1)c1cc2ccccc2o1 | inactive: 0.236%
14 | O=C(OC1CN2CCC1CC2)C1c2ccccc2Oc2ccccc21 (centres undefined) | inactive: 0.14%
15 | N#CC1(Nc2ccccc2)CCN(Cc2ccccc2)CC1 | inactive: 0.87%
16 | CCOC(=O)N1CCC(Nc2ccc(OC)cc2)CC1 | inactive: 0.42%
17 | COc1ccc(C(=O)NCC2(N3CCCCC3)CCCCC2)c(OC)c1OC | inactive: 0.596%
18 | COc1cc(OC)cc(C(=O)NCC2(N3CCOCC3)CCCCC2)c1 | inactive: 0.992%
19 | CCC(CO)(C(=O)OC1CN2CCC1CC2)c1ccccc1 (centres undefined) | inactive: 1.73%
20 | CCCOc1ccc(C)cc1CN(CCCl)CCCl | inactive: -28.1%
21 | CCOc1ncccc1C(=O)NCC1(N2CCOCC2)CCCCC1 | inactive: 0.693%
22 | CC(C)(C)OC(=O)N1CCC(Nc2ccccc2)CC1 | inactive: 0.739%
23 | CCN1CCC(Nc2cccc(F)c2)CC1 | inactive: 0.309%
24 | CN(C)c1ccc(C(=O)NCC2(N3CCCCC3)CCCCC2)cc1 | inactive: 0.168%
25 | c1ccc(CN2CCC(Nc3ccccc3)CC2)cc1 | inactive: 2.08%
26 | N#Cc1ccc(C(=O)NCC2(N3CCCCC3)CCCCC2)cc1 | inactive: 0.736%
27 | N/C(=N\O)c1c(N)no[n+]1[O-] | inactive: -0.28%
28 | O=C(OC1CN2CCC1CC2)C1c2ccccc2C=Cc2ccccc21 (centres undefined) | inactive: 3.07%
29 | COc1ccc(C(=O)NCC2(N3CCOCC3)CCCCC2)cc1OC | inactive: 0.35%
